Values quoted from earlier work in patent US10259779B2 (WAYNE STATE UNIVERSITY, priority 2016, dated 2019).

Target: T1, HDAC8 (Homo sapiens, UniProt Q9BY41)
T1 sequence (Q9BY41 1-377): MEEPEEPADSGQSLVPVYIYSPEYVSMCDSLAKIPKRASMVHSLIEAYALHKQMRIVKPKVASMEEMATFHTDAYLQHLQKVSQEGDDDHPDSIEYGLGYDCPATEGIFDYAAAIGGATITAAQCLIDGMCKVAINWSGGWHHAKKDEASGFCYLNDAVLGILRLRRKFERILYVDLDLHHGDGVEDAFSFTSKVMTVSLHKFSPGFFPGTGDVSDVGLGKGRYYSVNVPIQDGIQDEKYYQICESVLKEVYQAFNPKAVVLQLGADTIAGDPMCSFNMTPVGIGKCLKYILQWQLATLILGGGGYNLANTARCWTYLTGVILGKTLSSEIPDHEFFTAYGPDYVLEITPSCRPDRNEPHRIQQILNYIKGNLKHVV
Conditions: literature; BRD-73954: over HDAC1, 2, and 3; cited from earlier work

## COc1ccc(Cn2ccc3ccc(C(=O)NO)cc32)cc1 [PCI-34051]
  fold selectivity to HDAC8 (reported): at least 400 fold
